# Test results published in PubChem BioAssay (NCI).
#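 48-hour exposure; five concentrations; linearly interpolated endpoints. GI50 is the concentration that inhibits growth by half. TGI denotes the concentration required for complete inhibition of growth.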
# Columns and labels:
# Assay in all cases: NCI-60 cell line screen, 48 h
# 786-0 renal = tested on: 786-0 renal
# A549 NSCLC = tested on: A549 NSCLC
# ACHN renal = tested on: ACHN renal
# BT-549 breast = tested on: BT-549 breast
# CAKI-1 renal = tested on: CAKI-1 renal
# CCRF-CEM leukemia = tested on: CCRF-CEM leukemia
# COLO 205 colon = tested on: COLO 205 colon
# DU-145 prostate = tested on: DU-145 prostate
# EKVX NSCLC = tested on: EKVX NSCLC
# HCT-116 colon = tested on: HCT-116 colon
# HCT-15 colon = tested on: HCT-15 colon
# HL-60(TB) leukemia = tested on: HL-60(TB) leukemia
# HOP-62 NSCLC = tested on: HOP-62 NSCLC
# HOP-92 NSCLC = tested on: HOP-92 NSCLC
# HS 578T breast = tested on: HS 578T breast
# HT29 colon = tested on: HT29 colon
# IGROV1 ovarian = tested on: IGROV1 ovarian
# K-562 leukemia = tested on: K-562 leukemia
# KM12 colon = tested on: KM12 colon
# LOX IMVI melanoma = tested on: LOX IMVI melanoma
# M14 melanoma = tested on: M14 melanoma
# MALME-3M melanoma = tested on: MALME-3M melanoma
# MCF7 breast = tested on: MCF7 breast
# MDA-MB-435 = tested on: MDA-MB-435
# MDA-N = tested on: MDA-N
# MOLT-4 leukemia = tested on: MOLT-4 leukemia
# NCI-H226 lung = tested on: NCI-H226 lung
# NCI-H23 lung = tested on: NCI-H23 lung
smiles,measurement,setting,value
COP(C)(=O)C(N)Cc1ccccc1.O=[N+]([O-])c1cc([N+](=O)[O-])c(O)c([N+](=O)[O-])c1,GI50,786-0 renal,> 100 µM
same,TGI,786-0 renal,> 100 µM
same,GI50,A549 NSCLC,> 100 µM
same,TGI,A549 NSCLC,> 100 µM
same,GI50,ACHN renal,> 100 µM
same,TGI,ACHN renal,> 100 µM
same,GI50,BT-549 breast,> 100 µM
same,TGI,BT-549 breast,> 100 µM
same,GI50,CAKI-1 renal,> 100 µM
same,TGI,CAKI-1 renal,> 100 µM
same,GI50,CCRF-CEM leukemia,> 100 µM
same,TGI,CCRF-CEM leukemia,> 100 µM
same,GI50,COLO 205 colon,> 100 µM
same,TGI,COLO 205 colon,> 100 µM
same,GI50,DU-145 prostate,> 100 µM
same,TGI,DU-145 prostate,> 100 µM
same,GI50,EKVX NSCLC,> 100 µM
same,TGI,EKVX NSCLC,> 100 µM
same,GI50,HCT-116 colon,> 100 µM
same,TGI,HCT-116 colon,> 100 µM
same,GI50,HCT-15 colon,> 100 µM
same,TGI,HCT-15 colon,> 100 µM
same,GI50,HL-60(TB) leukemia,> 100 µM
same,TGI,HL-60(TB) leukemia,> 100 µM
same,GI50,HOP-62 NSCLC,> 100 µM
same,TGI,HOP-62 NSCLC,> 100 µM
same,GI50,HOP-92 NSCLC,> 100 µM
same,TGI,HOP-92 NSCLC,> 100 µM
same,GI50,HS 578T breast,> 100 µM
same,TGI,HS 578T breast,> 100 µM
same,GI50,HT29 colon,> 100 µM
same,TGI,HT29 colon,> 100 µM
same,GI50,IGROV1 ovarian,> 100 µM
same,TGI,IGROV1 ovarian,> 100 µM
same,GI50,K-562 leukemia,> 100 µM
same,TGI,K-562 leukemia,> 100 µM
same,GI50,KM12 colon,> 100 µM
same,TGI,KM12 colon,> 100 µM
same,GI50,LOX IMVI melanoma,> 100 µM
same,TGI,LOX IMVI melanoma,> 100 µM
same,GI50,M14 melanoma,> 100 µM
same,TGI,M14 melanoma,> 100 µM
same,GI50,MALME-3M melanoma,70.2 µM
same,TGI,MALME-3M melanoma,> 100 µM
same,GI50,MCF7 breast,> 100 µM
same,TGI,MCF7 breast,> 100 µM
same,GI50,MDA-MB-435,43.2 µM
same,TGI,MDA-MB-435,> 100 µM
same,GI50,MDA-N,42 µM
same,TGI,MDA-N,> 100 µM
same,GI50,MOLT-4 leukemia,> 100 µM
same,TGI,MOLT-4 leukemia,> 100 µM
same,GI50,NCI-H226 lung,> 100 µM
same,TGI,NCI-H226 lung,> 100 µM
same,GI50,NCI-H23 lung,> 100 µM
